Our source for the Specific activity (U/mg), 1 mM αF6P values is patent publication US20150118700.

For the series, the target named is T1, α-fructosyl hexapeptide (α-fructosyl-valyl-histidyl-leucyl-threonyl-propyl-glutamic acid).
T1 chain: VHLTPE

B1: fructosyl amino acid oxidase derived from Cryptococcus neoformans (CnFX) (protein)
chain: MPPSRASTKVIVIGGGGTLGSSTALHLLRAGYTPSNITVLDTYLIPSAQSAGNDLNKIMGIRIRNPVDKQLSLEARDMWRNDEVFKPYFHNTGRLDCAHTPESIASLRKSYEAILKAGSGLEKTHHWLSTEDEILARAPLLDRKQIKGWKAIYSEDGGWLAAAKAINSIGQVLKEKGVTFGFGSAGSFKKPLFDEDGTKAIGIETVDGTQYFADKVVLAAGAWSPTLVDLEGQCCSKAWVYAHMQLTPEEAAEYKECPVVYNSELGFFFEPNEKGVIKVCDEFPGFTRFKQHQPYGASSTKHISFPRSHAKHPTDTIPDESDASIRRAISAFLPRFKEKELFNRALCWCTDTADANLLICEHPKWKNFILATGDSGHSFKILPNIGKHVVELIEGTLAEDLAESWRWRPGSGDPLISRRAAPARDLADLPGWNHDEPSDDDMD
Protein B1 came in with a Specific activity (U/mg), 1 mM αF6P of 0 U/mg.

B2: CnFX-62D/106K/110L/113K (protein)
chain: MPPSRASTKVIVIGGGGTLGSSTALHLLRAGYTPSNITVLDTYLIPSAQSAGNDLNKIMGIDIRNPVDKQLSLEARDMWRNDEVFKPYFHNTGRLDCAHTPESIAKLRKLYEKILKAGSGLEKTHHWLSTEDEILARAPLLDRKQIKGWKAIYSEDGGWLAAAKAINSIGQVLKEKGVTFGFGSAGSFKKPLFDEDGTKAIGIETVDGTQYFADKVVLAAGAWSPTLVDLEGQCCSKAWVYAHMQLTPEEAAEYKECPVVYNSELGFFFEPNEKGVIKVCDEFPGFTRFKQHQPYGASSTKHISFPRSHAKHPTDTIPDESDASIRRAISAFLPRFKEKELFNRALCWCTDTADANLLICEHPKWKNFILATGDSGHSFKILPNIGKHVVELIEGTLAEDLAESWRWRPGSGDPLISRRAAPARDLADLPGWNHDEPSDDDMD
The protein B2 came in with a Specific activity (U/mg), 1 mM αF6P of 0.342 U/mg.

B3: fructosyl peptide oxidase derived from Phaeosphaeria nodorum (PnFX) (protein)
chain: MAPSRANTSVIVVGGGGTIGSSTALHLVRSGYTPSNVTVLDAYPIPSSQSAGNDLNKIMGVSLRNPVDLQLALEARQMWNEDELFKKFFHNTGRLDCAHGEKDIADLKSGYQALVDAGLDATNEWLDSEDEILKRMPLLSRDQIKGWKAIFSKDGGWLAAAKAINAVGEYLRDQGVRFGFYGAGSFKAPLLAEGVCIGVETVDGTRYYADKVVLAAGAWSPTLVELHEQCVSKAWVYGHIQLTPEEAARYKNSPVVYNGDVGFFFEPNEHGVIKVCDEFPGFTRFKMHQPFGAKAPKRISVPRSHAKHPTDTIPDASDVSIRRAIATFMPQFKNKKMFNQAMCWCTDTADAALLICEHPEWKNFVLATGDSGHSFKLLPNIGKHVVELLEGTLADDLAHAWRWRPGSGDALKSRRSAPAKDLADMPGWNHDKPRANL
Protein B3 gave a Specific activity (U/mg), 1 mM αF6P of 0.0091 U/mg.

B4: fructosyl amino acid oxidase derived from Aspergillus oryzae RIB40 (FAOAo2) (protein)
chain: MTVTKSSSILIIGAGTWGASTALHLGRRGYTNVTVLDPYTVPSAISAGNDVNKIISSGQYSNKKDEIEVNEILAEEAFKGWTTDPLFKPYYHDTGVVMSACSSAGLDRLGIRVRPEEEPDVSEVTKPEHFRQLAPAVLKGNFPGWRGYHIRSNAGWAHARNALVAAIREAEKLGVKFVTGTQGRVITLIFENNDVKGAVTADGKIWRAEQTVLCAGANAAQFLDFKDQLRPTAWTLAHIRLKPEERALYKNLPVIFNIEKGFFFEPDEERGEIKICDEHPGYTNMVKSADGHLTSLPFEKTQIPKESEARVRALLSETMPQLADRPFSFARVCWCADTANREFIIDRHPEHPSLVLGCGASGRGFKYLPSIGNLIVDAIEDKVPEKVHKLTRWSPDIAVDRKWRDTLGRFGGPNRVMDFHDVKEWTNVQNKDTAKL
In the case of B4, the Specific activity (U/mg), 1 mM αF6P is 0.0022 U/mg.
